Molecular target: T1, Leukotriene A-4 hydrolase (Homo sapiens, UniProt P09960)
T1 sequence (P09960 whole entry): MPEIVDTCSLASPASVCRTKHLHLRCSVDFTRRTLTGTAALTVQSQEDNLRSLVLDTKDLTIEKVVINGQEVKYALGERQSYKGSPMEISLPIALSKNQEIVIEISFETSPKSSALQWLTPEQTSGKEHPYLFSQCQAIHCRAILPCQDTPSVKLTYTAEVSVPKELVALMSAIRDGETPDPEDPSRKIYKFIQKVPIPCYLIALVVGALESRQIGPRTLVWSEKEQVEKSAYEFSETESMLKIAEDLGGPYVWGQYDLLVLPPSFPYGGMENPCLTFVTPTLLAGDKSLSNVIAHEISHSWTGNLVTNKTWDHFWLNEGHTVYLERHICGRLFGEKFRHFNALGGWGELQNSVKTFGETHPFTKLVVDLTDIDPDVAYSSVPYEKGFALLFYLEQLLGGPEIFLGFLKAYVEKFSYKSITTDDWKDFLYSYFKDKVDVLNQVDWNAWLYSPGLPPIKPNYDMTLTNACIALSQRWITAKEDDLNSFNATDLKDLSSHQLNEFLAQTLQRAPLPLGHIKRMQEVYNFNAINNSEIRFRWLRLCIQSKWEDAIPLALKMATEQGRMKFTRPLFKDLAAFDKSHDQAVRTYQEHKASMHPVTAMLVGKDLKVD
Assay: Inhibition of LTA4H (unknown origin)

IC50: 23 nM
SMILES: O=C(O)CCCN1CCC[C@H]1COc1ccc(Oc2ccc(Cl)cc2)cc1
